The target of this assay is cAMP and cAMP-inhibited cGMP 3',5'-cyclic phosphodiesterase 10A (Homo sapiens, UniProt Q9Y233).

Protein sequences, listed by entry. Tags and fused reporters are not part of them. Lines headed by an entry give the natural chain unless they say otherwise; changes in a name come on top.
UniProt Q9Y233: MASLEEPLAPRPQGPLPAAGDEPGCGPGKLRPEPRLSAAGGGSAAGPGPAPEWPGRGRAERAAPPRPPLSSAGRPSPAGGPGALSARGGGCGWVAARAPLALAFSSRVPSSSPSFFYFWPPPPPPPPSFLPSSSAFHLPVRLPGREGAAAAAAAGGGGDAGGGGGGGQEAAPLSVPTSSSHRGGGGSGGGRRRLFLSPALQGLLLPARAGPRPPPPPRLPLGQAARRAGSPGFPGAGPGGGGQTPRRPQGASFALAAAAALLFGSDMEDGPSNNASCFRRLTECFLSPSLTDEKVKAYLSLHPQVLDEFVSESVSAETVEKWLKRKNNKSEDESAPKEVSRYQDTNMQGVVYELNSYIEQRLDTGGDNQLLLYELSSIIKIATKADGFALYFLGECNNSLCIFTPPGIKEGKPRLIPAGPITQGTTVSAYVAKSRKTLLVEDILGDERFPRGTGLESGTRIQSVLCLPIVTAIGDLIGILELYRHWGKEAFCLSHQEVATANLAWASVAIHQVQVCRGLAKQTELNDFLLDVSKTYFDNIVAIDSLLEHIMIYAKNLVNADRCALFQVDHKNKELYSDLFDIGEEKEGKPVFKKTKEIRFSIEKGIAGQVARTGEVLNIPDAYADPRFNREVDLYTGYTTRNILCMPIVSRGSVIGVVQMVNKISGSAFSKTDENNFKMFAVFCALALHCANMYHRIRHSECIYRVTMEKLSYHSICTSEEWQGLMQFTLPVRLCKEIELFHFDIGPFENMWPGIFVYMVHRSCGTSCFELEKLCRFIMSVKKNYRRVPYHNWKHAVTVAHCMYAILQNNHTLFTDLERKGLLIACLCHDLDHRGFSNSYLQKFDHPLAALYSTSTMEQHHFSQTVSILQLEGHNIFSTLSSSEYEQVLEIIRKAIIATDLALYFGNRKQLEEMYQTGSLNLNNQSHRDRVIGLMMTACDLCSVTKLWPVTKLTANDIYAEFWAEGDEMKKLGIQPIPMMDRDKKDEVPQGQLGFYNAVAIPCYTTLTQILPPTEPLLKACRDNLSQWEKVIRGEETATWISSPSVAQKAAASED

By IC50 is commonly meant the concentration needed to halve the response being measured. Molecule `CNC(=O)c1cccc(-c2nccnc2C2CN(c3ccc4ccccc4n3)C2)c1` gave an IC50 of 0.7 nM.

`Cc1cccc(C(=O)N2CC(c3nccnc3-c3ccccc3)C2)n1` gave an IC50 of 3670 nM. Compared with the last molecule, the IC50 is about 5200-fold higher.

On to `COc1ccc(-c2nccnc2C2CN(c3ccc4ccccc4n3)C2)cc1`, for which half-maximal inhibition (IC50) was put at 2 nM.

`c1ccc2nc(N3CC(c4nccnc4-c4ccncc4)C3)ccc2c1` displayed an IC50 of 4 nM.

With `CCOC(=O)c1ccc(-c2nccnc2C2CN(c3ccc4ccccc4n3)C2)cc1`, the midpoint of inhibition, the IC50, lay at 2 nM.

As to `Fc1cc(-c2nccnc2C2CN(c3ccc4ccccc4n3)C2)ccn1`, it took 10 nM to reach half-maximal inhibition (IC50).

Take `CC(C)(C)OC(=O)N1CC=C(c2nccnc2C2CN(c3ccc4ccccc4n3)C2)CC1`: half-maximal inhibition (IC50) was put at 0.7 nM.

The molecule `c1ccc(-c2cccc(-c3nccnc3C3CN(c4ccc5ccccc5n4)C3)c2)cc1` yielded an IC50 of 2 nM. Compared with the last molecule, the IC50 is about 2.9-fold higher.

As for `N#Cc1ccc(-c2nccnc2C2CN(c3ccc4ccccc4n3)C2)cc1F`, half-maximal inhibition (IC50) required 6 nM.

The molecule `CC(C)Oc1ccc(-c2nccnc2C2CN(c3ccc4ccccc4n3)C2)cc1` returned an IC50 of 7.23 nM. This IC50 and that of the molecule before are within 1.5-fold of each other.

`O=S(=O)(c1ccc(-c2nccnc2C2CN(c3ccc4ccccc4n3)C2)cc1)N1CCCCC1` yielded an IC50 of 21.2 nM.

With `CN(C(=O)OC(C)(C)C)C1CCN(c2nccnc2C2CN(c3ccc4ccccc4n3)C2)C1` (stereo unspecified), the IC50 was 2 nM. This IC50 lies about 11-fold lower than the previous one.

On to `CC(C)(C)OC(=O)N1C[C@@H]2CN(c3nccnc3C3CN(c4ccc5ccccc5n4)C3)C[C@@H]2C1`, for which the IC50 was found to be 1 nM.

As to `CC(C)(C)OC(=O)N1CC2CN(c3nccnc3C3CN(c4ccc5ccccc5n4)C3)CC2C1` (stereo unspecified), the IC50 is 3 nM.

As for `OC[C@@H]1CCN(c2nccnc2C2CN(c3ccc4ccccc4n3)C2)C1`, the IC50 was 6 nM.

For the molecule `OC[C@H]1CCN(c2nccnc2C2CN(c3ccc4ccccc4n3)C2)C1`, the IC50 was determined as 6 nM.

Regarding `CC(C)(C)OC(=O)N[C@@H]1CCN(c2nccnc2C2CN(c3ccc4ccccc4n3)C2)C1`, 21 nM corresponded to half-maximal inhibition (IC50).

On to `COC[C@H]1CCCN1c1nccnc1C1CN(c2ccc3ccccc3n2)C1`, for which the IC50 was 811 nM.

In turn, `COC1CN(c2nccnc2C2CN(c3ccc4ccccc4n3)C2)C1` displayed a half-maximal inhibitory concentration (IC50) of 21 nM.

In the case of `CN1CCN(c2nccnc2C2CN(c3ccc4ccccc4n3)C2)CC1=O`, half-maximal inhibition (IC50) was put at 2.2 nM.

As to `OCC1(CC2CC2)CCN(c2nccnc2C2CN(c3ccc4ccccc4n3)C2)CC1`, the midpoint of inhibition, the IC50, lay at 4 nM.

`CC(=O)Nc1cccc(-c2nccnc2C2CN(c3ncc4ccccc4n3)C2)c1` displayed an IC50 of 0.635 nM.

With `CS(=O)(=O)Nc1cccc(-c2nccnc2C2CN(c3ncc4ccccc4n3)C2)c1`, the midpoint of inhibition, the IC50, lay at 9.59 nM. Compared with the last molecule, the IC50 is about 15-fold higher.

`Cn1ccc2cc(-c3nccnc3C3CN(c4ncc5ccccc5n4)C3)ccc21` yielded a 50% inhibitory concentration (IC50) of 5.95 nM.

Take `O=C1Cc2cc(-c3nccnc3C3CN(c4ncc5ccccc5n4)C3)ccc2N1`: the half-maximal inhibitory concentration (IC50) worked out at 9.46 nM. This IC50 is about 1.6-fold higher than that of the molecule before.

Molecule `Cc1cccc(-c2nccnc2C2CN(c3ccc4ccccc4n3)C2)c1` registered an IC50 of 1.78 nM.

On to `COc1cccc(-c2nccnc2C2CN(c3ncc4ccccc4n3)C2)c1`, for which the IC50 worked out at 9.29 nM. Compared with the last molecule, the IC50 is about 5.2-fold higher.

The molecule `OCC1CCN(c2nc3ccccc3nc2C2CN(c3ccc4ccccc4n3)C2)CC1` registered an IC50 of 2.43 nM.

In the case of `Oc1cccc(-c2nc3ccccc3nc2C2CN(c3ccc4ccccc4n3)C2)c1`, the IC50 was found to be 0.99 nM.

For the molecule `Oc1cccc(-c2nccnc2C2CN(c3ccc4ccccc4n3)C2)c1`, the IC50 was determined as 4.65 nM. This IC50 is about 4.7-fold higher than that of the molecule before.

On to `Nc1ccccc1-c1nccnc1C1CN(c2ccc3ccccc3n2)C1`, for which the IC50 was determined as 133 nM.

With `COc1cc(-c2nccnc2C2CN(c3ccc4ccccc4n3)C2)ccc1F`, the IC50 is 2.98 nM.

In the case of `OCC1CCN(c2nccnc2C2CN(c3ncc4cccc(Cl)c4n3)C2)CC1`, the IC50 was found to be 11.7 nM.

Consider `OCC1CCN(c2nccnc2C2CN(c3cnc4ccc(Cl)cc4n3)C2)CC1`, for which the IC50 is 0.5 nM.

As for `COc1cccc(-c2nccnc2C2CN(c3nc4ccc(OC)cc4s3)C2)c1`, the IC50 is 10 nM.

For `O=C(c1nc2ccccc2[nH]1)N1CC(c2nccnc2Oc2ccccc2)C1`, inhibition was half-maximal at 730 nM (IC50).

Source of the values: ChEMBL document CHEMBL3638423 (2015).
